Measurements reported in ChEMBL document CHEMBL1136547, “2,3-Diarylbenzopyran derivatives as a novel class of selective cyclooxygenase-2 inhibitors” (Bioorg Med Chem Lett, 2003).

Target: T1, Prostaglandin G/H synthase 2 (Mus musculus, UniProt Q05769)
T1 sequence (Q05769 whole entry): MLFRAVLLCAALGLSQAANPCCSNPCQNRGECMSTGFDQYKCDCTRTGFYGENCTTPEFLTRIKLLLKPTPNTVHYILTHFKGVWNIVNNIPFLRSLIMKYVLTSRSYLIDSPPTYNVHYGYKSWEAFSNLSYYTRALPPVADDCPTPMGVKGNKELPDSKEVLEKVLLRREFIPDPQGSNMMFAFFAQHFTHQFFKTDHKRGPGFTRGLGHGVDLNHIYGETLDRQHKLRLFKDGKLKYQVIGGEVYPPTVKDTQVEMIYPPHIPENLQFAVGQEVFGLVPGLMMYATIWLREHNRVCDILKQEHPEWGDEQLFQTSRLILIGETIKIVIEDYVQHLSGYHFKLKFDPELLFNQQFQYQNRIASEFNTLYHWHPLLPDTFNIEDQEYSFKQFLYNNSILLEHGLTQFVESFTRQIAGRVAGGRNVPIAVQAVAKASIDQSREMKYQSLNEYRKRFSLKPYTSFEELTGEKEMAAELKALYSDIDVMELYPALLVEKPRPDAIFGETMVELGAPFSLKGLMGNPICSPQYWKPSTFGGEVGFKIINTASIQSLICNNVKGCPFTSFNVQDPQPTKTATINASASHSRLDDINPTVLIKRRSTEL
Experiment: In vitro inhibitory concentration against prostaglandin G/H synthase 2 using freshly harvested mouse peritoneal macrophages

IC50: 1320 nM
Structure (SMILES): CS(=O)(=O)c1ccc(-c2oc3ccccc3c(=O)c2-c2cccnc2)cc1
